{"sequences": {"note": "Protein sequences, listed by entry. Tags and fused reporters are not part of them.", "UniProt P41143, whole entry": "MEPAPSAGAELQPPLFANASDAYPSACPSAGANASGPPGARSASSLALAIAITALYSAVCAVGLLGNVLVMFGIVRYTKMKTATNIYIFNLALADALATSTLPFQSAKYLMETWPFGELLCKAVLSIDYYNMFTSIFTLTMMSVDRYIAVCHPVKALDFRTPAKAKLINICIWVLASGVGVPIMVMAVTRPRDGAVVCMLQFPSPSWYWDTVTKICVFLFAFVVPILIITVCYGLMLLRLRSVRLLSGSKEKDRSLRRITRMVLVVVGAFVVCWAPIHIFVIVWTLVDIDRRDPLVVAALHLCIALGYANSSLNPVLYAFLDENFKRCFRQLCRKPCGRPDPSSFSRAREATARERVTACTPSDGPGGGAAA", "UniProt P35372, whole entry": "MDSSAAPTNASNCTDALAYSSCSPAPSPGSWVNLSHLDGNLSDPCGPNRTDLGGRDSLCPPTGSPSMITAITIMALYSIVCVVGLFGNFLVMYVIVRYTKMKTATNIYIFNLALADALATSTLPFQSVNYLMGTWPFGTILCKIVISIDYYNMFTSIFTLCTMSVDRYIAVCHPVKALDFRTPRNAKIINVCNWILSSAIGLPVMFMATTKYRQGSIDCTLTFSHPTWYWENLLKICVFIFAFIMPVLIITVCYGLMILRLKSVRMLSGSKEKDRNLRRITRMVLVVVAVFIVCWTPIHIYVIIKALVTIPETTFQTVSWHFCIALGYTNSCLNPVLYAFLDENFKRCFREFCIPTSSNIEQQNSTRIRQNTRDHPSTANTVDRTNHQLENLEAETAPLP"}, "source": "ChEMBL document CHEMBL1671784", "about": "(J Med Chem, 2011)", "key": {"[1]": {"target": "Delta-type opioid receptor (Homo sapiens, UniProt P41143)", "assay": "biochemical"}, "Mu-type opioid receptor": {"target": "Mu-type opioid receptor (Homo sapiens, UniProt P35372)", "assay": "biochemical"}}, "data": [{"smiles": "Cl.Cl.O=C(O)CN[C@@H]1CC[C@@]2(OCCCc3ccccc3)[C@H]3Cc4ccc(O)c5c4[C@@]2(CCN3CC2CC2)[C@H]1O5", "values": [{"measurement": "EC50", "setting": "[1]", "value": 4.24, "unit": "nM"}, {"measurement": "EC50", "setting": "Mu-type opioid receptor", "value": 1.06, "unit": "nM"}]}]}
